# US8691813B2, “Indole and benzoxazine derivatives as modulators of metabotropic glutamate receptors” (Janssen Pharmaceuticals, Inc., priority 2008, dated 2014)
# The chains behind the UniProt entries cited, without tags or fusion partners. Residues count along the entry.
# UniProt Q14416, 19-872 limits assumed: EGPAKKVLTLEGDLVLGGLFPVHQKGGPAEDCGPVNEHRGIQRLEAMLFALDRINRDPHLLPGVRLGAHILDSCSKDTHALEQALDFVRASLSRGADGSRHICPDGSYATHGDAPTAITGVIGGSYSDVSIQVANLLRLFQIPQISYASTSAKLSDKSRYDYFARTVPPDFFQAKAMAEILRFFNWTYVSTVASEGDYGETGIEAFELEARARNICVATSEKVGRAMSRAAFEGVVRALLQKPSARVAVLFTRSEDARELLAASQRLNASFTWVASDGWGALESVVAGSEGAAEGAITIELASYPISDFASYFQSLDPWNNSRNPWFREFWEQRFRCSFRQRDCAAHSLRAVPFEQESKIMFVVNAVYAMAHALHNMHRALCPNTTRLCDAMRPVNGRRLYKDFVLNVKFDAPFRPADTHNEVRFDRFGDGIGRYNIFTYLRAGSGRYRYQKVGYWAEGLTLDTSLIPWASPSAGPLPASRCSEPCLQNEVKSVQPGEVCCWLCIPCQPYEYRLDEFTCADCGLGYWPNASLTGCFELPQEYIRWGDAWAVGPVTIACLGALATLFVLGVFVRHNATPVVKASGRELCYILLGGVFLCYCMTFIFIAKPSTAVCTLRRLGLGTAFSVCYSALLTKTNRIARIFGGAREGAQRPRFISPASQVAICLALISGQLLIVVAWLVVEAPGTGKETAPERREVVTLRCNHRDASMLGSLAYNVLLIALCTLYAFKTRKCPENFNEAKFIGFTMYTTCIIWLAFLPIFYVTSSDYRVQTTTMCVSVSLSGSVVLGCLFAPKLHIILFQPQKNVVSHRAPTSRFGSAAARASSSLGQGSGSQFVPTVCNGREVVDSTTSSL
# Target: human mGluR2 (Homo sapiens, UniProt Q14416)
# Test: [35S]GTPγS binding assay (PAM assay) using membranes from CHO cells transfected with the human mGluR2 receptor
# Settings: in presence of glutamate at predetermined EC25 concentration; membranes containing human mGluR2; averages of duplicate values of 11-concentration response curves
smiles,measurement,value
N#Cc1c(-c2ccc3c(c2)OCCN3C2CCOCC2)ccn2c(CC(F)(F)F)cnc12,GTPγS -hR2 PAM pEC50,6.24
N#Cc1c(-c2ccc3c(c2)OCCN3)ccn2c(CC(F)(F)F)cnc12,GTPγS -hR2 PAM pEC50,5.78
Cc1c[nH]c2ccc(-c3ccn4c(CC(F)(F)F)cnc4c3C#N)cc12,GTPγS -hR2 PAM pEC50,6.27
